Results on one substance are retold here after patent US10836796B2, “Derivatives of amanita toxins and their conjugation to a cell binding molecule” (Hangzhou DAC Biotech Co., Ltd., priority 2016, dated 2020).

The experiment has as its system human gastric carcinoma N-87 cell line tumor xenograft. The experiment is described as follows: Antitumor activity in vivo, N-87 tumor xenograft model. On the set-up: species or system BALB/c Nude mice. The conditions noted are these: 6 mg/Kg i.v., one injection. The method, then: The first group of mice served as the control group and was treated with the phosphate-buffered saline vehicle. […] The weight of the animals was also measured at the same time. A mouse was sacrificed when any one of the following criteria was met: (1) loss of body weight of more than 20% from pretreatment weight, (2) tumor volume larger than 1500 mm^3, (3) too sick to reach food and water, or (4) skin necrosis. A mouse was considered to be tumor-free if no tumor was palpable.

As for “T-DM1: Trastuzumab-DM1, antibody conjugated with maytansine derivative DM1; comparator conjugate [reference compound]”, the “duration of tumor growth inhibition” value came out at 37 days and the “elimination / eradication of the tumors” value was “not able to eliminate the tumors completely”.
